The assay has as its target T1, human haptoglobin (a mixture of isotype 2-2/2-1) (human, UniProt P00738 19-160; P00738-2 19-101; P00738 162-406).
T1 construct: haptoglobin alpha-2 chain, human; cut product of the haptoglobin precursor (Hp2 allele), present in phenotypes 2-2 and 2-1; haptoglobin alpha-1 chain, human; cut product of the haptoglobin precursor (Hp1 allele), present only in the 2-1 part of the mixture; haptoglobin beta chain, human; cut product of the haptoglobin precursor; A mixture of the polymeric phenotypes 2-2 and 2-1; also called Hp; …
T1 sequence (looked up) 1: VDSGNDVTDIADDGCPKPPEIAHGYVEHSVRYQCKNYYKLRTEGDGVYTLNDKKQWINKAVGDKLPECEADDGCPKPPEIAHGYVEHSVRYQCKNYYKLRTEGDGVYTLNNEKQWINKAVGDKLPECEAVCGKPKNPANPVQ
T1 sequence (looked up) 2: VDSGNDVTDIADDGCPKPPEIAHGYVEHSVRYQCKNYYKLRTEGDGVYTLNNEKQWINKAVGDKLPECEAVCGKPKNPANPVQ
T1 sequence (looked up) 3: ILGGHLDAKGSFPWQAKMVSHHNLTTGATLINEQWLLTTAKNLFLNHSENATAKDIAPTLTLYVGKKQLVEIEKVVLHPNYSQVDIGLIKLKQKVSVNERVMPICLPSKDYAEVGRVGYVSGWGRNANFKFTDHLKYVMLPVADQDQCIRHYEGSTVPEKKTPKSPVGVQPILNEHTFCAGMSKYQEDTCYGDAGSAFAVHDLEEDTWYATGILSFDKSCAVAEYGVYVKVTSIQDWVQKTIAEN
Description: BLI; Hp immobilised on amine-reactive biosensors in acetate buffer (pH 5.0) for 600 s, Octet Red 96; oxyHb or metHb twofold serially diluted (0-30 nM); global 1:1 kinetic model; three independent experiments. Particulars: both partners purified.

B1: human oxyhemoglobin (ferrous hemoglobin, Fe2+) (complex)
chain 1: not shown
chain 2: not shown
Usually Kd stands for the equilibrium constant for the complex coming apart. The term koff denotes the first-order rate constant of dissociation. The kon is the second-order rate constant of association. With B1, the Kd worked out at 0.129 nM, the koff is 3.5e-05 s⁻¹ and the on-rate constant (kon) was 270000 M⁻¹ s⁻¹.

B2: human methemoglobin (ferric hemoglobin, Fe3+) (complex)
chain 1: not shown
chain 2: not shown
Take B2: the dissociation constant (Kd) came to 0.141 nM, the koff is 2.8e-05 s⁻¹ and the on-rate constant (kon) worked out at 200000 M⁻¹ s⁻¹.

For the origin of these results see article PMC7879625, “Cell-free oxidized hemoglobin drives reactive oxygen species production and pro-inflammation in an immature primary rat mixed glial cell culture” (Journal of Neuroinflammation, 2021).
